Measurements published in patent publication US10730883B2 (AbbVie Inc., priority 2015, dated 2020).

Tested on: healthy subjects
Assay: Study 2-Part 1: safety and tolerability, multiple doses, healthy subjects
Format: in vivo, human
Settings: 14 days

## CC[C@@H]1CN(C(=O)NCC(F)(F)F)C[C@@H]1c1cnc2cnc3[nH]ccc3n12 [Compound 1, (3S,4R)-3-ethyl-4-(3H-imidazo[1,2-a]pyrrolo[2,3-e]pyrazin-8-yl)-N-(2,2,2-trifluoroethyl)pyrrolidine-1-carboxamide]
3 mg BID dose group
  overall incidence of TEAEs: 25.0%
6 mg BID dose group
  overall incidence of TEAEs: 25.0%
12 mg BID dose group
  overall incidence of TEAEs: 37.5%
